This is an account of results in PubChem BioAssay AID1777 (Sanford-Burnham Center for Chemical Genomics, 2009).

Sequences of proteins named here, by UniProt entry; tags and fusion partners are left off. A change or cut given only in a name is not applied to a line headed by its entry.
UniProt P41145: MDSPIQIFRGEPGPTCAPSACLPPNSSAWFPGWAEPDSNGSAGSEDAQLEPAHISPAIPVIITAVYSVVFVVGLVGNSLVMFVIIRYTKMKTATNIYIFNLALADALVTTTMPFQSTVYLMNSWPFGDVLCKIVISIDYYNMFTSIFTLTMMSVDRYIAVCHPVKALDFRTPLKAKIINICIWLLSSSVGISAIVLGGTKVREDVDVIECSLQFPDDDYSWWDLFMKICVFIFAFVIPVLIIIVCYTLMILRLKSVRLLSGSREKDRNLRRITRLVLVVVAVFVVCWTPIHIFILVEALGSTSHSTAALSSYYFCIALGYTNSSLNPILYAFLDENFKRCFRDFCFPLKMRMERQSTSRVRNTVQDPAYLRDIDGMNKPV

Molecules are shown by their SMILES. Some of the results follow. Potency and affinity values are given separately. Active and inactive are the calls of the source. Rule as the data show it: active = activation above about 50% (passing the limit was not always enough); inactive = the rest.

The target of the assay is Kappa-type opioid receptor (Homo sapiens) (UniProt P41145). As to the kind of experiment: kappa opioid receptor activators – cell-based, luminescence, uHTS, primary screen (AID 1777). The following applies: KOR beta-arrestin recruitment, at 10 µM, hits give high values. In general terms: Arrestin recruitment assays detect the binding of arrestin to an activated receptor.
`c1ccc(CN2CCC3(CC2)Nc2ccccc2CO3)cc1`: the activation was inactive: -2.5%.

`CCOC(=O)CSc1nc2ccccc2n1CC(=O)N1CCN(c2ccccc2)CC1`: the activation is inactive: 6.9%.

As to `Cn1c(=O)c2c(ncn2CC(=O)N2CCN(c3ccccc3F)CC2)n(C)c1=O`, the activation was inactive: 1%.

Consider `CCN(CC)CCn1c(=N)n(CCO)c2ccccc21`, for which the activation was inactive: -4.8%.

Regarding `COc1ccc(C2=NCC(CBr)S2)cc1` (centres undefined), the activation is inactive: 9.2%.

Turning to `Cn1c(=O)c2c(ncn2CC(=O)N/N=C/c2ccco2)n(C)c1=O`, the activation is inactive: -2.2%.

In the case of `CC(=O)N1CCc2cc(S(=O)(=O)NC(CC(C)C)C(=O)N3CCn4c3nc3ccccc34)ccc21` (centres undefined), the activation was inactive: 2.1%.

Regarding `CCC(=O)Nc1cccc(C(=O)/C=C/c2cccs2)c1`, the activation is inactive: -4.4%.

For the compound `CCC(C)[C@H](NC(=O)N1CCn2c1nc1ccccc12)C(=O)NCCc1ccccc1` (some centres undefined), the activation is inactive: 0%.

In the case of `O=C(NC1CCCCC1)N1CCC(n2c(=O)[nH]c3ccccc32)CC1`, the activation was inactive: 9.1%.

With `Cn1c(=O)c2c(nc(Sc3nc4ccccc4n3CC(=O)N3CCCCC3)n2C)n(C)c1=O`, the activation is inactive: -4.3%.

Turning to `O=[N+]([O-])c1cc([N+](=O)[O-])c(CCNc2ccccc2)c([N+](=O)[O-])c1`, the activation was inactive: -0.6%.

Turning to `CCc1nc2c(n1)c1c(non1O)c1c2no[n+]1[O-]`, the activation is inactive: -1.7%.

`Cn1c(=O)[nH]c(=O)c2c1nc(CN1CCN(Cc3ccccc3)CC1)n2CC(N)=O`: the activation was inactive: -3.8%.

With `Cc1csc2ncnc(NC3CCN(Cc4ccccc4)CC3)c12`, the activation is inactive: -0.9%.

Regarding `N=c1n(CCN2CCCCC2)c2ccccc2n1CC(O)COc1ccccc1` (centres undefined), the activation is inactive: 0.2%.

In the case of `Cc1ccc(OCC(O)Cn2c(=N)n(CCN3CCOCC3)c3ccccc32)cc1` (centres undefined), the activation was inactive: 3.4%.

Regarding `COC(=O)c1ccc(NC(=O)Cn2c(-c3nonc3N)nc3ccccc32)cc1`, the activation was inactive: 0%.

Regarding `Cc1ccc(NP(=O)(Oc2ccccc2)Oc2ccccc2)nc1`, the activation was inactive: 3.9%.

On to `CC1CC(C)CN(C(=O)Cn2c(-c3nonc3N)nc3ccccc32)C1` (centres undefined), for which the activation is inactive: -6.6%.

Take `O=[N+]([O-])c1ccc(NC2CCN(Cc3ccccc3)CC2)c([N+](=O)[O-])c1`: the activation is inactive: -2.8%.

As for `Cc1nc2ccccc2n1CC(=O)N/N=C/c1cccs1`, the activation was inactive: -1.8%.

Consider `COC(=O)c1ccccc1NC(=O)Cn1cnc2cc(C)c(C)cc21`, for which the activation was inactive: -5.7%.

For `CSCC[C@H](NC(=O)N1CCn2c1nc1ccccc12)C(=O)N[C@H](Cc1ccccc1)C(=O)O`, the activation is inactive: -0.8%.

In the case of `CCOc1ccccc1OCC(=O)NNC(=O)Cn1cnc2c1c(=O)n(C)c(=O)n2C`, the activation is inactive: -3.5%.

As to `Cc1ccc(C)c(CN2CCC(n3nnc4cc(F)ccc43)CC2)c1`, the activation is inactive: 8%.

As to `Nc1nonc1-c1nc2ccccc2n1CC(=O)N1CCCCC1`, the activation is inactive: 2.4%.

Consider `COC(=O)c1sccc1NC(=O)Cn1cnc2c1c(=O)n(C)c(=O)n2C`, for which the activation is inactive: -3.3%.

In the case of `Cn1c(=O)[nH]c(=O)c2c1nc1n2CCN1Cc1ccccc1`, the activation was inactive: -2.8%.

Consider `N#CCCNC(=O)Cn1c(COc2ccc(Cl)cc2)nc2ccccc21`, for which the activation was inactive: -6.3%.

For `Cn1ncc([N+](=O)[O-])c1C(=O)Nc1nc2ccccc2n1CCN1CCCCC1`, the activation was inactive: 5.7%.

`CC#CCCC(=O)N1C=Cc2ccccc2C1C#N` (centres undefined): the activation was inactive: -2.7%.

In the case of `CC(=O)N1C2C3N(C(C)=O)C1C1N(C(C)=O)C(C(N1C(C)=O)N3C(C)=O)N2C(C)=O`, the activation is inactive: 2.7%.

With `O=[N+]([O-])c1cccc2n[nH]nc12`, the activation is inactive: 1.4%.

For `CSCC[C@H](NC(=O)N1CCn2c1nc1ccccc12)C(=O)NCc1ccc2c(c1)OCO2`, the activation is inactive: 0.4%.

On to `O=S(=O)(c1ccc(Cl)cc1)N1CCn2c1nc1ccccc12`, for which the activation was inactive: 4.5%.

With `CC(/C=N/NC(=O)Cn1cnc2ccccc21)=C\c1ccccc1`, the activation was inactive: 1%.

`COc1ccc(Cc2nnc(NC(=O)Cn3cnc4c3c(=O)n(C)c(=O)n4C)s2)cc1OC`: the activation was inactive: 6.5%.

For `CCCn1c(=O)c2c(nc3n2CCN3Cc2ccco2)n(C)c1=O`, the activation is inactive: -0.2%.

For `CCN(CC)CCn1c(=N)n(CC(=O)c2ccc(Br)s2)c2ccccc21`, the activation was inactive: 1.3%.

Turning to `O=S(=O)(c1ccccc1)c1nnn2c1nc(NC1CCN(Cc3ccccc3)CC1)c1cc(Cl)ccc12`, the activation was inactive: 3.1%.

Consider `CCN(CC)c1ccc(NC(=O)Cn2c(C(C)NC(=O)c3ccc(C)cc3)nc3ccccc32)cc1` (centres undefined), for which the activation is inactive: 1%.

Regarding `COc1cc(/C=N/NC(=O)Cn2cnc3c2c(=O)n(C)c(=O)n3C)cc(OC)c1OC`, the activation is inactive: 0.6%.

In the case of `O=C(NC1CCCCC1)C(c1ccccc1)N(Cc1ccco1)C(=O)Cn1cnc2ccccc21` (centres undefined), the activation was inactive: 3.7%.

Consider `CSCC[C@H](NC(=O)N1CCn2c1nc1ccccc12)C(=O)NC1CC1`, for which the activation was inactive: -5%.

For `CCOc1ccc(NC(=S)N2CCn3c(nc4ccccc43)C2)cc1`, the activation was inactive: 2.5%.

Consider `CCOc1ccc(CNc2nc3ccccc3n2CCN2CCOCC2)cc1`, for which the activation is inactive: -1.3%.

For the compound `Cn1c(=O)c2c(nc(CN3CCN(Cc4ccccc4)CC3)n2CCN2CCOCC2)n(C)c1=O`, the activation is inactive: -1.1%.

In the case of `CC(NC(=O)Cn1c(NCCO)nc2ccccc21)c1ccccc1` (centres undefined), the activation is inactive: -5.5%.

With `CCC(C)N(C(=O)Cn1c(Cl)nc2c1c(=O)n(C)c(=O)n2C)C1CCS(=O)(=O)C1` (centres undefined), the activation is inactive: -7.1%.

Consider `Brc1cccc(CNc2nc3ccccc3n2CCN2CCCCC2)c1`, for which the activation is inactive: 10.1%.

Take `O=C(Cn1cnc2ccccc21)Nc1ccccc1-c1ccccc1`: the activation is inactive: 0.4%.

Take `COc1ccc(OC)c(CNc2nc3ccccc3n2CCN2CCCCC2)c1`: the activation is inactive: 1.7%.

Turning to `CCSc1nc2ccccc2n1CC(N)=O`, the activation is inactive: -2%.

On to `O=C(Cn1cnc2ccccc21)N/N=C/c1ccco1`, for which the activation is inactive: 8.9%.

As to `COCCN1CCn2c(nc3cc(NS(C)(=O)=O)ccc32)C1`, the activation was inactive: -1.3%.

Turning to `COc1ccc(CNc2nc3ccccc3n2CCN2CCCCC2)cc1`, the activation was inactive: -7.2%.

In the case of `Cc1cccc(OCC(O)Cn2c(=N)n(CCN3CCCCC3)c3ccccc32)c1` (centres undefined), the activation was inactive: -0.5%.

For the compound `Cn1c(=O)[nH]c(=O)c2c1nc(N1CCCCCC1)n2CC(N)=O`, the activation is inactive: -0.8%.
